Laboratory results from patent US9440097B2, “Organic compounds” (Givaudan SA, priority 2005, dated 2016).

System: PGE2 formation in normal human epidermal keratinocytes (NHEK)
Assay: Inhibition of PGE2 formation in irritated keratinocyte cultures (PGE2 immunoassay)
Format: cell-based
Settings: 24 h
Description: A confluent culture was trypsinated and adjusted to a density of 5×10^4 cells/ml. The cells were then seeded in the same medium but with only 1% fetal calf serum in 24 well plates and cultivated for a period of 48 h. A model irritating agent was then applied to the cells by adding calcimycin to a final level of 2.5 μM. The individual compounds, as listed below, dissolved in DMSO were added simultaneously. The final concentration of the compounds was 50 μM or 10 μM, the final DMSO concentration was adjusted to 1% (v/v). Parallel treatments received no calcimycin (non-irritated control) or calcimycin without compounds according to the present invention (irritated control). The DMSO concentration was adjusted to 1% in all these control treatments. […] The prostaglandin levels in treated cell cultures were compared to the irritated and non-irritated control cultures in order to determine the relative inhibition of PGE2 formation.

## COc1ccc2ccccc2c1 [YARA YARA ™, 2-methoxynaphthalene]
Homo sapiens, NHEK, read-out: relative inhibition in % of PGE2 formation in keratinocyte cultures at 50 μM
  inhibition at 50 µM: 78%
Column head prints only 'μM' (method: 50 μM or 10 μM), calcimycin 2.5 μM, 1% DMSO
  relative inhibition in % of PGE2 formation in keratinocyte cultures at μM: 46%
